The values below are quoted from earlier work in paper PMC4642336.

This series deals with NusG CTD (Escherichia coli) (UniProt P0AFG0).

Regarding NusE (from UniProt P0A7R5), the Kd was 50 µM.
